Patent US6410792B1, “Amide derivatives and methods for using the same as selective neuropeptide Y receptor antagonists” (Bayer Corporation, priority 1997, dated 2002)

Target: T1, Rat NPY5 receptor (Rattus norvegicus, UniProt Q63634)
T1 sequence (Q63634 1-445): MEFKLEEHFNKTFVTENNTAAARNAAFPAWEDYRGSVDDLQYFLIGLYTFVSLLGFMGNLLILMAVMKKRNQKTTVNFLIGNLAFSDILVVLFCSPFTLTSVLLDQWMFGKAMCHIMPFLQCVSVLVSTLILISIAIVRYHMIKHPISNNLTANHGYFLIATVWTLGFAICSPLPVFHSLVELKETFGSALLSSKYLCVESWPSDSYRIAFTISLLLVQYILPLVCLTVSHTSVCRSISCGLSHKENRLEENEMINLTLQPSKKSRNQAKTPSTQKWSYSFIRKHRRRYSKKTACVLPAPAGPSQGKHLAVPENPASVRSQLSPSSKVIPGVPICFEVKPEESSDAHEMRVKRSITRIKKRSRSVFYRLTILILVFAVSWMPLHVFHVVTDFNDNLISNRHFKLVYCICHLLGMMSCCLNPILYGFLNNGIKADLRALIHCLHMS
Assay: Rat NPY5 receptor binding assay ([125I]PYY, membrane protein)
Details: [125I]PYY binding, read-out: rNPY5 IC50
Method: C. Human and Rat NPY5 Receptor Binding Assays
Binding assays are performed on GF/C Millipore 96well plates pretreated with 0.02% polyethylenimine. The binding buffer is 25 mM Tris, 120 mM NaCl, 5 mM KCl, 1.2 mM KH2PO4, 2.5 mM CaCl2, 1.2 mM MgSO4, 0.1% BSA and 0.5 mg/ml bacitracin, pH 7.4. Samples consist of membrane protein, 75-100 pM [125I]PYY (porcine, NEN-DuPont) and drug dilution. Nonspecific binding is defined by 1 μM PYY. After a 2 hour incubation at room temperature with constant mixing, the samples are aspirated on a vacuum manifold, and rinsed with ice-cold binding buffer. The amount of radioactivity in each well is quantitated with either gamma counting or liquid scintillation.

- IC50: 880 nM
Substance: 4,4-Dicyano-3-{[(4-cyclohexyl-phenylcarbamoyl)-methyl]-amino)-but-3-enoic acid ethyl ester [Compound 233]
